Earlier results in PMC1253704, “Nitromusk and Polycyclic Musk Compounds as Long-Term Inhibitors of Cellular Xenobiotic Defense Systems Mediated by Multidrug Transporters” (Environmental Health Perspectives, 2004).
Marks after values point to notes of the source that are not given here.

Settings: ref Wang et al. (2003); cited from earlier work

Question: With `C=C[C@H]1C[N@@]2CC[C@H]1C[C@@H]2[C@@H](O)c1ccnc2ccc(OC)cc12` [Quinidine, reference compound] as the compound, how does the “Log Kow” value read?
Answer: Its value is 2.8^b.
